Results on one molecule are retold here after patent US5602102A, “Dipeptidyl peptidase-I inhibitors and uses thereof” (Board of Regents, The Univ. of TX System, priority 1992, dated 1997).

Chains of the proteins cited; added tags and fusions are not shown. Residues count along the entry.
UniProt P53634, 395-463 limits assumed: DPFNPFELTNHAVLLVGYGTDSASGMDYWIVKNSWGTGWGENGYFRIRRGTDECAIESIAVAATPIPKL
UniProt P53634, 25-134 limits assumed: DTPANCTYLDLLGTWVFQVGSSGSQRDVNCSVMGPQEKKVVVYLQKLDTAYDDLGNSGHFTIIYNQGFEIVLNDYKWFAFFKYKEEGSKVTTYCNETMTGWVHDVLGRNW
UniProt P53634, 231-394 limits assumed: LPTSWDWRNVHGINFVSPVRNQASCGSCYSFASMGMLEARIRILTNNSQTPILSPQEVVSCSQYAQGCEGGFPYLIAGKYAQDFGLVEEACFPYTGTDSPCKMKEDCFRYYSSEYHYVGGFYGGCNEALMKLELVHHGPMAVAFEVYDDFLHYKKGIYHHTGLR

Each structure is given as a SMILES string.

The assay concerns the target human dipeptidyl peptidase-I (Homo sapiens, UniProt P53634). Description: Effect of protease inhibitors on DPPI activity (purified enzyme). The note with it: inhibitor 1 mM, preincubated 15 min at 37° C. The class given is biochemical. Also on record: Human DPPI is now established to constitute a 200,000 Da glycoprotein with 24,000 Da subunits; from tissue; host or cells: human cadaveric spleen. The procedure:
Note. Purified human dipeptidyl peptidaseI (0.4 μg) was preincubated
with each of the inhibitors at the stated concentration for 15 min at
37° C.. Each sample was diluted 3fold with assay buffer containing
substrate and incubated for an additional 20 min.

Regarding `O=S(=O)(F)Cc1ccccc1` [PMSF, phenylmethylsulfonylfluoride], the Percentage control activity was 98%.
